The structures appear in SMILES notation.

Protein sequences, listed by entry. Tags and fused reporters are not part of them.
UniProt Q99685, whole entry: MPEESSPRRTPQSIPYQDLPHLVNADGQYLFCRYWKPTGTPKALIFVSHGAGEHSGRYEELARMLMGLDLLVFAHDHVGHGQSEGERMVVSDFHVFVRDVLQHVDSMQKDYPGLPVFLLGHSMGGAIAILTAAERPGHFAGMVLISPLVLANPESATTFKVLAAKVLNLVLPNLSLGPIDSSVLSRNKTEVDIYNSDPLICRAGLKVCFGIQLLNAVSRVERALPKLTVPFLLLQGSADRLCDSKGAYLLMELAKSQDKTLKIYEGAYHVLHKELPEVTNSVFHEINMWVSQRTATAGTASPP

Holding throughout (test): biochemical
The target in assay [1] is T1, Human recombinant CES1 (Carboxylesterase 1) (Homo sapiens, UniProt P23141).
T1 sequence (P23141 18-567): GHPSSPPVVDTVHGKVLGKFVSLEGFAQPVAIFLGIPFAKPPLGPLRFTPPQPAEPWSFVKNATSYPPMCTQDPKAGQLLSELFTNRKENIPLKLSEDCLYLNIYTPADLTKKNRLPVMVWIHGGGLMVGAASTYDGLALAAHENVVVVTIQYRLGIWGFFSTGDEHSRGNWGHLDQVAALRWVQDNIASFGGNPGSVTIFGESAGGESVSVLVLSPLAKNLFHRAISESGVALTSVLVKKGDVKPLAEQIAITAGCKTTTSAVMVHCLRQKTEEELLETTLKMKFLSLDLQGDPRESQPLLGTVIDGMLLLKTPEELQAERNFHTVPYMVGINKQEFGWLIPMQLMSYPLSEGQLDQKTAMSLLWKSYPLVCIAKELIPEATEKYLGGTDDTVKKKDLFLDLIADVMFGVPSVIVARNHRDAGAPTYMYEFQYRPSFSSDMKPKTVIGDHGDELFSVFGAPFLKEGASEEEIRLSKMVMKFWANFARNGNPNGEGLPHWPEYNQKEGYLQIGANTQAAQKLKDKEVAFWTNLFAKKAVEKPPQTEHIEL

For assay [2], the target named is Human recombinant MGL (Monoacylglycerol lipase) (Homo sapiens, UniProt Q99685).
The target in assay [3] is T2, Human recombinant CES2 (Carboxylesterase 2) (Homo sapiens, UniProt O00748).
T2 sequence (O00748 27-559): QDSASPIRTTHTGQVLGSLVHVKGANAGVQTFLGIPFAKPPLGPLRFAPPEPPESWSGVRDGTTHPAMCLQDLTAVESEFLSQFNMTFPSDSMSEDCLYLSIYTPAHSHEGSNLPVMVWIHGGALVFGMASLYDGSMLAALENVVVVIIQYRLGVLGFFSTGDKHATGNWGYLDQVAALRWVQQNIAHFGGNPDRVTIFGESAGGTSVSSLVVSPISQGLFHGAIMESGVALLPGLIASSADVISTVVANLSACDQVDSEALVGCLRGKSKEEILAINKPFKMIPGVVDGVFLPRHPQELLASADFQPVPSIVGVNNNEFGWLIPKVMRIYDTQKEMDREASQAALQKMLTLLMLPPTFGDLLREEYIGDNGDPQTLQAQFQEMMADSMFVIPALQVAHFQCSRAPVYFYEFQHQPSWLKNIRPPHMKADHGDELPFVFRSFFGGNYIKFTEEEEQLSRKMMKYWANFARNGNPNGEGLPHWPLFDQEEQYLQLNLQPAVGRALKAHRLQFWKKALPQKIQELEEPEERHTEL

As usually defined, the IC50 is the concentration at which inhibition is half-maximal. With `CCOP(=O)(OCC)Oc1nc(Cl)c(Cl)cc1Cl` [Chlorpyrifos Oxon, Chlorpyrifos oxon], the IC50 came out at 0.15 ± 0.05 nM in assay [1], 5.1 ± 3.7 nM in assay [2] and 0.33 ± 0.05 nM in assay [3].
With `COP(=O)(OC)Oc1ccc([N+](=O)[O-])cc1` [Methyl Paraoxon, Methyl paraoxon], the IC50 amounted to 4.8 ± 0.2 nM in assay [1], 1600 ± 960 nM in assay [2] and 220 ± 50 nM in assay [3].
The corresponding values for `CCOP(=O)(OCC)Oc1ccc([N+](=O)[O-])cc1` [Paraoxon] are 0.38 ± 0.1 nM, 120 ± 40 nM and 6.2 ± 0.3 nM.
